Hits are enriched below; roughly 1.3% of the tested compounds scored in any of these assays.
UUG fidelity: modulators of start codon recognition fidelity in yeast; S. cerevisiae UUG-firefly luciferase reporter, luminescence/redox ratio; activity score, % at 18.7 µM; hit rate 0.13% among 350,000; AID 602363;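 active = replicate mean at a twofold rise or more, about +100% in these data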;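 note: firefly luciferase made from a UUG start codon reports start codon fidelity; reporter light over untreated wells divided by growth signal over untreated wells; some hits fall short of that in this replicate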
LGR2 antag: inhibitors of bursicon-induced Drosophila LGR2 receptor cAMP signaling | HEK293 LGR2, CRE-luciferase, bursicon-stimulated, 4 h | inhibition, % at 9.99 µM | 380,000 compounds, 0.35% hits;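 active = drop in luminescence signal, shown as inhibition above about 50% in the replicate tests, limit read from the data, passing the limit was not always enough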;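 also: agonist challenge used bursicon conditioned medium at about half maximal strength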
EWS-Fli block: blocks EWS/Fli oncoprotein-driven transcription. 350,000 compounds, 0.67% hits. inhibition, % at 12.6 µM. AID 651661. A673 NR0B1-luciferase reporter, viability-normalised;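 active = mean inhibition of at least 50% after viability correction, with every replicate also passing that limit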;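 also: firefly luciferase signal divided by Alamar Blue viability fluorescence both relative to DMSO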
PglD inh: PglD (C. jejuni) enzyme inhibition; 360,000 compounds, 0.098% hits; inhibition, % at 12.5 µM; AID 602405; purified PglD enzyme, DTNB colorimetric CoA detection; in the data active = inhibition above about 16%, passing the limit was not always enough
miR-122 sensor: inhibitors of miR-122 in Huh7 cells | 340,000 compounds, 0.3% hits | Huh7 miR-122 Renilla luciferase sensor, 48 h; neutral wells = 0, positive control = 100 | activation (reporter increase), % at 12.5 µM;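 active = mean replicate activation score at least 90 and every replicate individually at or above 90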;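 also: higher luciferase means less miR-122 activity so hits act as miR-122 inhibitors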
F508del corr: CFTR F508del correction in bronchial cells | CFBE cells, YFP halide quenching; stimulated with forskolin plus potentiator P3; % fluorescence drop versus neutral controls | activity (quench increase), % at 7.58 µM | 350,000 compounds, 0.36% hits;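 active = mean added fluorescence quench of at least 8% versus neutral control, with both replicates also reaching 8%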;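 also: cells transiently co-express mutant CFTR-F508del with the halide-sensitive YFP; corrector assay measuring rescue of mutant channel to the surface after 24 h compound exposure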
Large screens that a line does not name were inactive; ! = repeats disagree; [ ] = another dose, or the depositor's remark.

COc1ccccc1NS(=O)(=O)c1cc(N=N/C(C(=O)Nc2ccc(Cl)cc2)=C(/C)O)ccc1C	F508del corr 11
O=C(COC(=O)Cc1ccc(Br)cc1)NCc1ccccc1	none
O=C(Cc1ccc(Br)cc1)NCc1ccccc1	F508del corr 20 (no result: miR-122 sensor)
NC(=O)c1ccc(C(F)(F)F)cn1	none
CN(C(=O)COC(=O)c1nc(Cl)c(Cl)c(Cl)c1Cl)C1CCS(=O)(=O)C1 (configuration not stated)	LGR2 antag 103 (no result: UUG fidelity, PglD inh, miR-122 sensor)
CN(C(=O)COC(=O)c1ccc(C(C)(C)C)cc1)C1CCS(=O)(=O)C1 (configuration not stated)	none
C/C=C/C=C/C(=O)N1CC2(CC(c3cccc(NC(=O)CCCCC)c3)=NO2)C[C@H]1C(N)=O (some centres not stated)	none (no result: LGR2 antag)
Cc1ccc2c(c1)c(C1=c3ccccc3=NC1=O)c(O)n2C	EWS-Fli block 64 (no result: miR-122 sensor)
C=CCn1c(O)c(C2=c3ccccc3=NC2=O)c2ccccc21	none (no result: miR-122 sensor)
CC(C)CC#Cc1ccc2c(c1)O[C@H](CN(C)C(=O)C1CCC1)[C@H](C)CN([C@@H](C)CO)S2(=O)=O	none
COc1ccc(NC(=O)N(C)C[C@@H]2Oc3cc(C#CCC(C)C)ccc3S(=O)(=O)N([C@H](C)CO)C[C@@H]2C)cc1	F508del corr 9.2 (no result: UUG fidelity)
COc1ccc(C#Cc2ccc3c(c2)O[C@H](CN(C)C(=O)Nc2cccc(OC)c2)[C@@H](C)CN([C@H](C)CO)S3(=O)=O)cc1	none
COc1ccc(C#Cc2ccc3c(c2)O[C@H](CN(C)C(=O)Nc2cccc(OC)c2)[C@H](C)CN([C@H](C)CO)S3(=O)=O)cc1	F508del corr 8.6
CC(C)CC#Cc1ccc2c(c1)O[C@H](CN(C)C(=O)Nc1ccccc1F)[C@@H](C)CN([C@@H](C)CO)S2(=O)=O	miR-122 sensor 107[16.7 µM]
CC(C)CC#Cc1ccc2c(c1)O[C@@H](CN(C)C(=O)C1CCC1)[C@@H](C)CN([C@H](C)CO)S2(=O)=O	miR-122 sensor 157[16.7 µM]
COc1ccc(NC(=O)N(C)C[C@H]2Oc3cc(C#CCC(C)C)ccc3S(=O)(=O)N([C@H](C)CO)C[C@H]2C)cc1	none (no result: UUG fidelity)
Cc1cccc(NC(=O)CSc2nc(NS(=O)(=O)c3ccccc3)cc(=O)[nH]2)c1	none (no result: UUG fidelity, PglD inh, miR-122 sensor)
CC1(C(=O)Nc2ccc3c(c2)OCO3)Cc2c(-c3ccc4c(c3)OCO4)ccnc2O1 (configuration not stated)	none
CC1(C(=O)Nc2ccc3c(c2)OCO3)Cc2c(-c3cccc(C(N)=O)c3)ccnc2O1 (configuration not stated)	EWS-Fli block 59
COc1ccc(NC(=O)C2(C)Cc3c(-c4ccc5c(c4)OCO5)ccnc3O2)cn1 (configuration not stated)	EWS-Fli block 64
O=C1CN(S(=O)(=O)c2ccccc2)C[C@@H]2[C@@H](c3ccc(C#Cc4ccccc4)cc3)[C@H](CO)N12	none (no result: UUG fidelity, EWS-Fli block, PglD inh, miR-122 sensor)
COc1ccc(C(=O)NN(C)c2nc(C(F)(F)F)nc3ccccc23)cc1	EWS-Fli block 56 (no result: UUG fidelity, PglD inh, miR-122 sensor)
CCOc1ccccc1N1CC(O)=C(c2nc3ccccc3s2)C1=N	miR-122 sensor 100
COc1ccc(OC)c(N2CC(O)=C(c3nc4ccccc4s3)C2=N)c1	none (no result: LGR2 antag, EWS-Fli block, F508del corr)
COc1ccc(S(=O)(=O)Nc2ccc3c(c2)CC(=O)N([C@@H](C)CO)C[C@H](C)[C@@H](CN(C)C)O3)cc1	none
CCc1ccccc1N(C)S(=O)(=O)c1ccc(-c2cc(C)no2)s1	F508del corr 8.2 (no result: EWS-Fli block)
COc1ccccc1OCCNC(=O)CCNC(=O)c1ccccc1OC	F508del corr 24
COc1ccccc1C(=O)NCCC(=O)NCCOc1ccccc1	none (no result: EWS-Fli block)
Cc1ccc(-c2ccc3c(c2)O[C@@H](CN(C)C(=O)Nc2ccc(F)cc2)[C@@H](C)CN([C@@H](C)CO)S3(=O)=O)cc1	F508del corr 8.5
Cc1ccc(-c2ccc3c(c2)O[C@H](CN(C)C(=O)Nc2ccc(F)cc2)[C@@H](C)CN([C@@H](C)CO)S3(=O)=O)cc1	F508del corr 12
Cc1ccc(-c2ccc3c(c2)O[C@H](CN(C)C(=O)Nc2ccc(C(F)(F)F)cc2)[C@H](C)CN([C@@H](C)CO)S3(=O)=O)cc1	F508del corr 8.6
COc1cccc(S(=O)(=O)N(C)C[C@H]2OCc3ccccc3-c3c(n(C)c4ccccc34)C(=O)N([C@@H](C)CO)C[C@@H]2C)c1	none (no result: UUG fidelity, LGR2 antag, PglD inh, miR-122 sensor)
Cc1cccc(C)c1NC(=O)CN1N=NC2C(=O)N(c3cccc(Cl)c3)C(=O)C21 (configuration not stated)	none
CO[C@H]1CN(C)C(=O)c2ccc(NC(=O)C3CCC3)cc2OC[C@H](C)N(Cc2nccs2)C[C@H]1C	none
COC(=O)c1sc(N)c(C(=O)OC)c1CSc1nnc(-c2ccccc2Cl)n1C	miR-122 sensor 104 (no result: LGR2 antag, EWS-Fli block, F508del corr)
COC(=O)c1sc(N)c(C(=O)OC)c1CSc1nnnn1C	none (no result: LGR2 antag, EWS-Fli block, F508del corr)
O=C(NCCOc1ccccc1)C(=O)NCC1CCCO1 (configuration not stated)	none
O=S1(=O)N=CN(Cc2cccc(F)c2)c2ccccc21	miR-122 sensor 157 (no result: LGR2 antag, EWS-Fli block, F508del corr)
c1cnc2c(c1)ccc1cccnc12	EWS-Fli block 62!
Cc1ccnc2c1ccc1cccnc12	F508del corr 9.4
COc1ccc(OC)c(Nc2nc(-c3sc(NC(=O)C(C)(C)C)nc3C)cs2)c1	F508del corr 8.0
COc1ccc(OC)c(Nc2nc(-c3sc(NC(=O)CC(C)C)nc3C)cs2)c1	none
COc1ccc(Cl)cc1Nc1nc(-c2sc(NC(=O)C(C)(C)C)nc2C)cs1	F508del corr 8.7
CCC(C)C(=O)Nc1nc(C)c(-c2csc(Nc3cc(Cl)ccc3OC)n2)s1 (configuration not stated)	none
C[C@H](CO)N1C[C@H](C)[C@@H](CN(C)S(=O)(=O)c2ccc(Cl)cc2)Oc2ccc(NC(=O)CCC(F)(F)F)cc2CC1=O	none
C[C@@H]1CN([C@@H](C)CO)C(=O)Cc2cc(NC(=O)CCC(F)(F)F)ccc2O[C@@H]1CN(C)S(=O)(=O)c1ccc(F)cc1	none
C[C@H](CO)N1C[C@H](C)[C@H](CN(C)S(=O)(=O)c2ccc(Cl)cc2)Oc2ccc(NC(=O)CCC(F)(F)F)cc2CC1=O	EWS-Fli block 59
C[C@H]1CN([C@@H](C)CO)C(=O)Cc2cc(NC(=O)CCC(F)(F)F)ccc2O[C@H]1CN(C)S(=O)(=O)c1ccc(F)cc1	EWS-Fli block 57!
C[C@H]1CN([C@@H](C)CO)C(=O)Cc2cc(NC(=O)CCC(F)(F)F)ccc2O[C@H]1CN(C)S(=O)(=O)c1ccc(Cl)cc1	EWS-Fli block 56
CCOc1ccccc1NC(=O)CN(c1ccc(OC)c(OC)c1)S(=O)(=O)c1ccc(C)cc1	none
